Reference: patent publication US8791130B2, “Aminopyrimidine derivatives as LRRK2 modulators” (Genentech, Inc., priority 2011, dated 2014)

Sequences of proteins named here, by UniProt entry; tags and fusion partners are left off. Residues count along the entry.
UniProt Q5S007, 970-2527 G2019S: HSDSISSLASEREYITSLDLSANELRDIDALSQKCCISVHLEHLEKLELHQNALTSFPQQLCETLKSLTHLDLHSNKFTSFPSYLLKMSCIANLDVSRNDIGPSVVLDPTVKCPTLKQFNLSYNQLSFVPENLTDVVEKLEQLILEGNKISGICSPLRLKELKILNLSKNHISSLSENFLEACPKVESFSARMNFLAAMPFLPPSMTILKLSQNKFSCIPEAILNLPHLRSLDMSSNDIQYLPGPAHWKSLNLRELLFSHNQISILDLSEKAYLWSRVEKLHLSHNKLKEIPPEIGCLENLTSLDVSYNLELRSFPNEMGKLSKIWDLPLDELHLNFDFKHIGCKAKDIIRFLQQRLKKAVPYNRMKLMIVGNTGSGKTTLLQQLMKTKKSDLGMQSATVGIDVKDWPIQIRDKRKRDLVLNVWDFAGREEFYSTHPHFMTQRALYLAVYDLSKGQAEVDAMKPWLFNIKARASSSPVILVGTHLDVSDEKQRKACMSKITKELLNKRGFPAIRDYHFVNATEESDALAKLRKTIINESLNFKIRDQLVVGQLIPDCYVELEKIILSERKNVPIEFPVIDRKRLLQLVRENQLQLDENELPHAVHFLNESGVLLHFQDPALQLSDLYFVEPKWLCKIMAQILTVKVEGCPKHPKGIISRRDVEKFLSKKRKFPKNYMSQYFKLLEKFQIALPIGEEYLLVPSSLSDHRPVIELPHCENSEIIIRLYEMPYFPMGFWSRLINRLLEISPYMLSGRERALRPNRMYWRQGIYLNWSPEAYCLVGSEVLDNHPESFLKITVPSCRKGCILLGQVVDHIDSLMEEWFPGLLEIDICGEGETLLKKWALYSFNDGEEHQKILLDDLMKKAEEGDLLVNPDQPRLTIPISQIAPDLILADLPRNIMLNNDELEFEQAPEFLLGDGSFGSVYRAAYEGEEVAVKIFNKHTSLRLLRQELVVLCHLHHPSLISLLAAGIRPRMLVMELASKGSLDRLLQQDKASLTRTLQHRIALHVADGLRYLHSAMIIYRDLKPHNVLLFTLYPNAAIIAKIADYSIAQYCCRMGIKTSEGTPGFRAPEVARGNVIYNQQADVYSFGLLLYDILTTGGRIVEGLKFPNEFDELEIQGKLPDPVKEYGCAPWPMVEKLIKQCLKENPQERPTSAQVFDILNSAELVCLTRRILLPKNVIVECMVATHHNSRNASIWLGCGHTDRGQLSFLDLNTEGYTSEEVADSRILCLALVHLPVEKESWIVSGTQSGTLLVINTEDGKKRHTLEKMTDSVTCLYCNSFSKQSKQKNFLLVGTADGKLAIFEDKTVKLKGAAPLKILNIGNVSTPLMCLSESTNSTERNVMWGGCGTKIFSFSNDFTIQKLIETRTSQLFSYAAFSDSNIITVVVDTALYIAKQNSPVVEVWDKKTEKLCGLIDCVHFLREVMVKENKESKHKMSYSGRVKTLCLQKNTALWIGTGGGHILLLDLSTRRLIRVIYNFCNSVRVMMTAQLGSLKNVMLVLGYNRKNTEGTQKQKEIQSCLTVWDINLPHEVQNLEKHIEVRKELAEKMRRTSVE

Target: LRRK2 (Homo sapiens (Human), UniProt Q5S007, G2019S)
Assay: In Vitro LRRK2 LabChip Assay (LRRK2 Ki)
Format: biochemical
Experimental: In Vitro LRRK2 LabChip Assay This assay was used to determine a compound's potency in inhibiting activity of LRRK2 by determining, Kiapp, IC50, or percent inhibition values. In a polypropylene plate, LRRK2, fluorescently-labeled peptide substrate, ATP and test compound were incubated together. Using a LabChip 3000 (Caliper Life Sciences), after the reaction the substrate was separated by capillary electrophoresis into two populations: phosphorylated and unphosphorylated. The relative amounts of each were quantitated by fluorescence intensity. LRRK2 Ki was determined according to the equation: […]))). Ki values in Table 4 and elsewhere herein are shown in μM. Assay conditions and materials used were as follows: Final Assay Conditions: LRRK2 G2019S in 5 mM MgCl2: 5.2 nM (Invitrogen lot #567054A) […] LRRK2 12020T in 5 mM MgCl2: 25 nM (Invitrogen lot #43594) Substrate: 1 μM ATP: 130 μM […] Temperature: ambient […] ATP^app Kms: G2019S in 5 mM MgCl2: 130 μM G2019S in 1 mM MnCl2: 1 μM […] I2020T in 5 mM MgCl2: 14 μM Materials: Solid Support: Black 50 μL volume polypropylene 384 well plate (MatriCal cat #MP101-1-PP) Kinase: LRRK2 G2019S (Invitrogen cat #PV4882). • LRRK2 Wild type (Invitrogen cat #PV4874). Substrate: 5[…] Non-binding plate: 384 well clear V-bottom polypropylene plates (Greiner cat #781280). ATP: 10 mM ATP (Cell Signaling cat #9804). Triton X-100: Triton X-100. […]

Ki: 2 nM
Compound: CNc1nc(Nc2ccc(-c3nncn3C)cc2OC)ncc1C(F)(F)F [Compound 40, N2-(2-methoxy-4-(4-methyl-4H-1,2,4-triazol-3-yl)phenyl)-N4-methyl-5-(trifluoromethyl) pyrimidine-2,4-diamine]
